Literature values, collected in publication PMC3158827 (ACS chemical biology, 2011).

What was measured:
[1] = tested on: pepsin; conditions: cited from earlier work
[2] = tested on: trypsin; conditions: cited from earlier work

For kalata B1, the “resistance to pepsin degradation” value [1] is listed as “completely resistant” and the “resistance to trypsin degradation” value [2] is listed as “completely resistant”.
